In patent US6897209B2, “Labelled factor XIIIa substrates” (GE Healthcare Limited, priority 1997, dated 2005):

Tests used:
human plasma clots = target: T1, human plasma clots (Homo sapiens, UniProt P00488); experiment: Incorporation into human plasma clots (in vitro plasma clot assay); type: biochemical
T1 construct: Factor XIII is transformed into its active form Factor XIIIa by thrombin in the presence of calcium ions; from tissue; host or cells: human plasma, clotted in vitro with thrombin and calcium chloride
T1 sequence (P00488 39-732): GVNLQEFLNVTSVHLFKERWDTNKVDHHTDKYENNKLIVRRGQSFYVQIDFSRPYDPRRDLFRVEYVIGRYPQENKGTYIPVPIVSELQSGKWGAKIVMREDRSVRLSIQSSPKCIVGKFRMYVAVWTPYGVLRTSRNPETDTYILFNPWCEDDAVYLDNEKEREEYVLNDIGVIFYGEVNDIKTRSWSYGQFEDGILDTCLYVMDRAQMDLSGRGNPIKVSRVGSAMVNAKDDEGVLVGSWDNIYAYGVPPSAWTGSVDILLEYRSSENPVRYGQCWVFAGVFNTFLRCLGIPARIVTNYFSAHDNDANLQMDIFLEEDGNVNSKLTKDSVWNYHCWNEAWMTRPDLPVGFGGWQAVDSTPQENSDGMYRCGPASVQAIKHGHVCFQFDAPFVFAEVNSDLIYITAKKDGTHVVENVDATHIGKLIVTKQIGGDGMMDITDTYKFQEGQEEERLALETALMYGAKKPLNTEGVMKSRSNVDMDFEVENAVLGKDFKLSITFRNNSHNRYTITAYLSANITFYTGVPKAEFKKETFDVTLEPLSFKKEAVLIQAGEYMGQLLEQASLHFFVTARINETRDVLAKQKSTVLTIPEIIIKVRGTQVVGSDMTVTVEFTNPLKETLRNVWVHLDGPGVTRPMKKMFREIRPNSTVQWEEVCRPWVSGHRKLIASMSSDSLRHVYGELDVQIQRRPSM
Description: Incorporation of radiolabelled substrates into fibrin was investigated by induction of an in vitro human plasma clot in the following manner. To a siliconised 5 ml glass vial was added, (a) 800 μl of Tris(hydroxymethyl)aminomethane buffered saline pH 7.5 containing calcium chloride (50 mM Tris, 150 mM sodium chloride, 4 mM calcium chloride.), (b) 40 μl of physiological salt solution containing 100 units of thrombin per ml, (c) 400 μl of human plasma containing the radiolabelled substrate at a concentration of typically 10 kBq/ml. To aid induction of clot a roughened glass rod was added to the reaction vial. Control vials were prepared similarly but with the omission of thrombin and calcium chloride.
The proportion of total radioactivity was calculated by counting in suitable detection apparatus.
The fraction of radioactivity retained on the filter, after subtraction of the non-specific binding determined from the control, is a measure of incorporation into the filtered clots.

Factor XIIIa = target: T2, Factor XIIIa (Homo sapiens, UniProt P00488); experiment: Factor XIIIa dependency of incorporation (dimethylcasein uptake, normal vs Factor XIII deficient plasma); type: biochemical; conditions: 1 KBq/ml, 60 minutes; uptake in normal plasma minus Factor XIII deficient plasma
T2 construct: Factor XIII is transformed into its active form Factor XIIIa by thrombin in the presence of calcium ions; from tissue; host or cells: human plasma
T2 sequence (P00488 39-732 limits assumed): T1 sequence (P00488 39-732)
Description: The assay was changed by replacing the mercaptoethanol with aprotinin at a final concentration of 2 μg/ml, and dimethylcasein (DMC) was used instead of casein.

- % specific uptake* (human plasma clots; % retained with thrombin − % retained no thrombin): 3.4%
- % retained in plasma clot assay (with thrombin) (human plasma clots; human plasma with thrombin and calcium chloride, 60 minutes, ca. 20° C.): 4%
- % specific DMC casein uptake (Factor XIIIa): 8%
Substance: 1-(4-(N-(5-aminopentyl)-amidosulphonyl)benzyl)-1,4,8,11-tetraazacyclotetradecane [Compound 20]
